Our source for the TD50 values is US4346097A, “Method for treating convulsions with pyrazole-4-carboxamide derivatives” (Warner-Lambert Company, priority 1980, dated 1982).

The series can be described thus: Rotorod Test, TD50. The conditions noted are these: in vivo, median minimal neurotoxic dose. The source says:
The term convulsions is intended to mean the characteristic body movements which are associated with the group of chronic central nervous system disorders termed, epilepsies.
These procedures are described in E. A. Swinyard, et al., Epilepsia, 19, 409 (1978), which is incorporated herein by reference. The TD50 is defined as the median minimal neurotoxic dose.

For the molecule `CCC1(c2ccccc2)C(=O)NC(=O)NC1=O` [PHENOBARBITAL], the TD50 stood at 69 mg/kg.
